Source: patent publication US20240238281A1, “PIPERAZINE DERIVATIVES AND APPLICATION THEREOF” (priority 2021, published 2024)

Chains of the proteins cited; added tags and fusions are not shown.
UniProt Q01726, whole entry: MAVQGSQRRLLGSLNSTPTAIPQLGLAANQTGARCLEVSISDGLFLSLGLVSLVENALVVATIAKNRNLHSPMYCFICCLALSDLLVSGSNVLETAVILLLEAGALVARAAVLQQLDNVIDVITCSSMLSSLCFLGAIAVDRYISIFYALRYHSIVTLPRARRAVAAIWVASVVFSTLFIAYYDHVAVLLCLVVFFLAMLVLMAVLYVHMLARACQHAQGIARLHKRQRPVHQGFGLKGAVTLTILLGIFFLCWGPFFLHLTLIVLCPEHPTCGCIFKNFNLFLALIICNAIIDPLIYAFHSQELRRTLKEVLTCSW
UniProt P41968, whole entry: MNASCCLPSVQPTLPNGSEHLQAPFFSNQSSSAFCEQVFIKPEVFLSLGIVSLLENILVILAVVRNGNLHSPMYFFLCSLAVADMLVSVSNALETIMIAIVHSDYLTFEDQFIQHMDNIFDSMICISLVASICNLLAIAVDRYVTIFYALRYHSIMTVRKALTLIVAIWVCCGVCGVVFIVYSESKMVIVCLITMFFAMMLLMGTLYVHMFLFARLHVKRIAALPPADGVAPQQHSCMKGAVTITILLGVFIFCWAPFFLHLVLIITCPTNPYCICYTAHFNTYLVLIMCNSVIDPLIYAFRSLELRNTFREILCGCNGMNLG
UniProt P33032, whole entry: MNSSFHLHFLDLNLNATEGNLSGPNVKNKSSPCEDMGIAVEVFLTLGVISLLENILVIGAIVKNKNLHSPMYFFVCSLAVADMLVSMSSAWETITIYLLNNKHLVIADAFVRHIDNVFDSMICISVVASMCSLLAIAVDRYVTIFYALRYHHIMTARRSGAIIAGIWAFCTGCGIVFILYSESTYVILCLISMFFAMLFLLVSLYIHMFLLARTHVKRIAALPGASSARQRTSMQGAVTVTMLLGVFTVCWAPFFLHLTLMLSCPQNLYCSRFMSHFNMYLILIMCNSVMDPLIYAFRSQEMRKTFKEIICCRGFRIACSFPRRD
UniProt P32245, whole entry: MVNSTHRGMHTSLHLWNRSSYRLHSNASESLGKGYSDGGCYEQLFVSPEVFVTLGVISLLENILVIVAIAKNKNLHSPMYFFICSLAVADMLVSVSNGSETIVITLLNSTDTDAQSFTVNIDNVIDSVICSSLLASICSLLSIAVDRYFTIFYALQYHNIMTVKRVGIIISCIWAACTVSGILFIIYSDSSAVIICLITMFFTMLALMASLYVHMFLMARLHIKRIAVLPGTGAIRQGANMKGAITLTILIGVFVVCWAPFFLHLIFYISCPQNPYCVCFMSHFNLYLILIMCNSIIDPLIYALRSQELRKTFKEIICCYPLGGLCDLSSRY

Assays:
Type in all cases: cell-based
MC1R = MC1R (Homo sapiens, UniProt Q01726); assay: In vitro activity of MCR receptors, intracellular cAMP signal (HEK293T/MCR cell line), MC1R; conditions: read-out: MC1R EC50, tested form: HCl
MC3R = MC3R (Homo sapiens, UniProt P41968); assay: In vitro activity of MCR receptors, intracellular cAMP signal (HEK293T/MCR cell line), MC3R; conditions: read-out: MC3R EC50, tested form: HCl
MC5R = MC5R (Homo sapiens, UniProt P33032); assay: In vitro activity of MCR receptors, intracellular cAMP signal (HEK293T/MCR cell line), MC5R; conditions: read-out: MC5R EC50, tested form: HCl
Experimental: (§1) Test purpose: to evaluate the agonistic effect of the compound on MCRs by detecting intracellular cAMP signal changes.
(§2) Cells were resuspended with 1×PBS+500 μM IBMX. 10 μL of the cell suspension was added into a 384-well plate to be tested, and the cell concentration was adjusted to 1×10^4 cells per well for later use. A pre-prepared solution of the compound to be tested was added, and dimethyl sulfoxide of the same volume was added to blank control wells. The test plate was centrifuged at 300 rpm for 1 minute, incubated at 37° C. for 30 minutes, and added with 5 μL of cAMP-d2 and 5 μL of a CAMP-cry antibody detection reagent. The test plate was centrifuged at 300 rpm for 1 minute, and incubated at room temperature for 60 minutes. The test plate was placed in the Envision multifunctional microplate reader for reading, with a detection wavelength of 665/615 nm.

MC4R = MC4R (Homo sapiens, UniProt P32245); assay: In vitro activity of MCR receptors, intracellular cAMP signal (HEK293T/MCR cell line), MC4R; conditions: read-out: MC4R EC50, tested form: HCl
Experimental: as §1, §2

C[C@@H]1CN(C(=O)[C@@H]2CN(C(C)(C)C)C[C@H]2c2ccc(Br)cc2)C[C@H](C)N1c1ccc(F)cc1 (relative stereo)
EC50 (MC1R): 55 nM | EC50 (MC3R): 1470 nM | EC50 (MC5R): 2800 nM | EC50 (MC4R): 18 nM
